This is a selection; strong and weak results do not stand in their true shares. Calls of active or inactive are those of the source. Rule as the data show it: active = inhibition above about 30%; inconclusive = no clear call, values can overlap the other calls; inactive = below that.

The chains behind the UniProt entries cited, without tags or fusion partners.
UniProt P21462, whole entry: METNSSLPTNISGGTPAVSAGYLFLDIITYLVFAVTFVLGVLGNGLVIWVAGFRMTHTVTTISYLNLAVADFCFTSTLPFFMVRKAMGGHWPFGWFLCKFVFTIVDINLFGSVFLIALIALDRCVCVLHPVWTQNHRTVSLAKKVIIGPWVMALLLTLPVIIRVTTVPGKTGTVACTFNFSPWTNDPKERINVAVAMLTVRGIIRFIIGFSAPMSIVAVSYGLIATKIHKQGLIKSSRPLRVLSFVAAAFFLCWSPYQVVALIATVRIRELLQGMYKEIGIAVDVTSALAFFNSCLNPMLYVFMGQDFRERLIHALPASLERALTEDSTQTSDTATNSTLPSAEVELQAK

This assay concerns the target fMet-Leu-Phe receptor (Homo sapiens) (UniProt P21462). As to the kind of experiment: small molecules displacing FPR fluorescent ligand – cell-based, FPRL1 counter-screen, flow cytometry, primary screen (AID 440).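 Also: 0% = buffer wells and 100% = receptor blocker peptide wells.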 The note with it: FPR-expressing cells, fluorescent ligand binding, stronger effect = higher value, concentration not given here. A general note: Counterscreens check selectivity or assay interference.
On to `Fc1ccccc1NC1CCN(Cc2ccccc2)CC1`, for which the inhibition (usually the change of the read-out against control, counted positive when it falls) is inactive: -3.6%.

As to `N#CC1(Nc2ccccc2)CCN(CCc2ccccc2)CC1`, the inhibition was inactive: -7.1%.
